{
  "source": "PubChem BioAssay AID588499",
  "about": "(NMMLSC, 2011)",
  "note": "The list shows a part of the results, in another mix than the full data. Activity calls are given as the source filed them. Rule as the data show it: active = inhibition above about 30%; inconclusive = no clear call, values can overlap the other calls; inactive = below that.",
  "data": [
    {"system": "Botulinum neurotoxin type A light chain protease (Clostridium botulinum A str. ATCC 3502)", "assay": "BoNT/A light chain protease inhibitors, primary screen, biochemical, flow cytometry, MLPCN library (AID 588499); also: plate controls were buffer without enzyme for full effect and enzyme alone for no effect", "conditions": "multiplex microsphere protease substrate cleavage, at 10 µM, stronger effect = higher value", "values": [
      {"molecule": "CCC(=O)N(c1ccccc1)C1(COC)CCN(CCn2nnn(CC)c2=O)CC1", "inhibition": "inactive: -0.1%"},
      {"molecule": "CCC(=O)N(c1ccccc1)C1(COC)CCN(CCc2cccs2)CC1", "inhibition": "inactive: -0.5%"}
    ]}
  ]
}
